Each structure is given as a SMILES string. The list shows a part of the results, in another mix than the full data. The source made the active and inactive calls. Calls follow the shape of the dose curve; as a rule, active = well fitted activation curve with a large enough effect; inconclusive = small, poorly fitted or top-dose-only effect; inactive = no such curve, though single readings can be large or run the other way.

Sequences of proteins named here, by UniProt entry; tags and fusion partners are left off.
UniProt O95398, whole entry: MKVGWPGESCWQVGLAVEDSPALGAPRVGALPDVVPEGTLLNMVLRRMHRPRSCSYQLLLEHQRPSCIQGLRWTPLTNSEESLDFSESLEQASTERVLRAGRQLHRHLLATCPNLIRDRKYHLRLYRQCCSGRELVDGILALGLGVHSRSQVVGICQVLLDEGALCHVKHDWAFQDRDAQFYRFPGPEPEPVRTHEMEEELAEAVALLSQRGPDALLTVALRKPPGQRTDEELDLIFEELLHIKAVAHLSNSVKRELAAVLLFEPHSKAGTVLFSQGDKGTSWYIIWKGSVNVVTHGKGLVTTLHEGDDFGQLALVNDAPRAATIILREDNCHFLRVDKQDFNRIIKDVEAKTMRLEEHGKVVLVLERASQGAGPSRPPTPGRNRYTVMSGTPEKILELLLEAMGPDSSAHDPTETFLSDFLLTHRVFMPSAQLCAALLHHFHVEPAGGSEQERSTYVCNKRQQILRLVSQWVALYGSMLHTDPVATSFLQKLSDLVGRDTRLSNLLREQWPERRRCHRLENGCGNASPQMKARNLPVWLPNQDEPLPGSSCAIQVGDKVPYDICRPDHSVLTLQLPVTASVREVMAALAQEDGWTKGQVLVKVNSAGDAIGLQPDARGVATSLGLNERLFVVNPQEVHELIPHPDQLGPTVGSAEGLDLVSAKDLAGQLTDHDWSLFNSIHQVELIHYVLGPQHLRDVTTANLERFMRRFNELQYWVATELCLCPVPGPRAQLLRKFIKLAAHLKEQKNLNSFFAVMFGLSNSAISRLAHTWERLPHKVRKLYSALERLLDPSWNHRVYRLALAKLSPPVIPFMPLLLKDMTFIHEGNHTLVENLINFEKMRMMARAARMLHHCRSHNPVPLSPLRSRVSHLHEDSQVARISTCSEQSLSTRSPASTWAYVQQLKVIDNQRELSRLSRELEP

For this experiment, the target named is Rap guanine nucleotide exchange factor 3 (Homo sapiens) (UniProt O95398). The experiment can be described thus: qHTS for Agonist of cAMP-regulated guanine nucleotide exchange factor 3 (EPAC1): primary screen. Also: nearly all actives have a fitted effect of over 60% in size. The note with it: biochemical assay; at 154 µM (top of the series), 100% = response to 6.5 mM cAMP unless noted. In outline:
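Fluorescent GDP-exchange assay: 100 nM EPAC1 with 250 nM Rap1B preloaded with BODIPY-GDP and 50 uM GDP; compounds tested as concentration series, 5 min at room temperature, then read every 5 min for 30 min (ex 480/em 540 nm); normalized to 6.5 mM cAMP.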
For orientation: In qHTS, concentration-response curves come from the screen itself.
As for `c1ccc(CN2CCC(Nc3ccccc3)CC2)cc1`, the activation was inactive: 3.65%.

As for `CC(C)(C)n1nnnc1C(c1cccc2ccccc12)N1CCC(n2c(=O)[nH]c3ccccc32)CC1` (stereo not given), the activation was inactive: 9.76%.

With `CCC(c1nnnn1C1CCCCC1)N1CCC(n2c(=O)[nH]c3ccccc32)CC1` (stereo not given), the activation was inactive: -4.79%.

Take `CC(=O)N(c1ccccc1)C1CCNCC1`: the activation is inactive: 5.87%.

For the compound `COc1cccc(C(c2nnnn2C2CCCCC2)N2CCC(n3c(=O)[nH]c4ccccc43)CC2)c1OC` (stereo not given), the activation was inactive: 2.71%.

Regarding `O=c1[nH]c2ccccc2n1C1CCN(C(c2ccnc3ccccc23)c2nnnn2C2CCCCC2)CC1` (stereo not given), the activation was inactive: 0.636%.

In the case of `COc1cc(OC)cc(C(=O)NCC2(N3CCCCC3)CCCCC2)c1`, the activation was inactive: 7.39%.

In the case of `Cc1ccc(Nc2c([N+](=O)[O-])cc([N+](=O)[O-])cc2[N+](=O)[O-])cc1`, the activation is inactive: -5.25%.

For `Fc1ccccc1NC1CCN(Cc2ccccc2)CC1`, the activation is inactive: -5.33%.

Take `Cc1ccc(C(=O)NCC2(N3CCCCC3)CCCCC2)o1`: the activation was inactive: -11.3%.

Turning to `Cc1ccc(NC2(C#N)CCN(Cc3ccccc3)CC2)cc1`, the activation was inactive: -4.95%.

In the case of `CC(C)(C)n1nnnc1C(c1ccnc2ccccc12)N1CCC(n2c(=O)[nH]c3ccccc32)CC1` (stereo not given), the activation is inactive: 7.03%.

Turning to `COc1ccc(C(c2nnnn2C2CCCCC2)N2CCC(n3c(=O)[nH]c4ccccc43)CC2)cc1` (stereo not given), the activation is inactive: -13.2%.

Regarding `CCN1CCC(Nc2cccc(F)c2)CC1`, the activation was inactive: 2.56%.

For the compound `Cc1ccccc1NC1(C#N)CCN(Cc2ccccc2)CC1`, the activation is inactive: 4.01%.

Regarding `Cn1c(=O)[nH]cc(N(CCCl)CCCl)c1=O`, the activation was inactive: 1.3%.

For `CN(C)c1ccc(C(=O)NCC2(N3CCCCC3)CCCCC2)cc1`, the activation is inactive: 1.97%.

Regarding `O=C(NCC1(N2CCCCC2)CCCCC1)c1ccco1`, the activation is inactive: -9.11%.

On to `CN1CCC(Nc2ccc(F)c(Cl)c2)CC1`, for which the activation was inactive: 2.01%.

`CCOc1ncccc1C(=O)NCC1(N2CCOCC2)CCCCC1`: the activation was inactive: 8.17%.

Regarding `NN(c1ccccc1)C1CCN(CCc2ccccc2)CC1`, the activation is inactive: -5.97%.

Consider `O=C(O)C1(Nc2ccccc2)CCN(Cc2ccccc2)CC1`, for which the activation was inactive: 0.924%.

As for `CC(C)(C)OC(=O)N1CCC(Nc2ccccc2)CC1`, the activation was inactive: 1.6%.

Turning to `CCCOc1ccc(C(=O)NCC2(N(C)C)CCCCC2)cc1`, the activation was inactive: -4.86%.

In the case of `O=c1[nH]c2ccccc2n1C1CCN(C(c2cc3ccccc3o2)c2nnnn2C2CCCC2)CC1` (stereo not given), the activation is inactive: -2.53%.

As to `COc1cccc(C(=O)N(c2cc(C)cc(C)c2)C2CCN(C(=O)OC(C)(C)C)CC2)c1`, the activation was inactive: -4.26%.

On to `COc1cc(OC)cc(C(=O)NCC2(N3CCOCC3)CCCCC2)c1`, for which the activation is inactive: -2.11%.

As to `COc1cccc(C(c2nnnn2C2CCCC2)N2CCC(n3c(=O)[nH]c4ccccc43)CC2)c1OC` (stereo not given), the activation was inactive: 0.527%.

`CCC(CO)(C(=O)OC1CN2CCC1CC2)c1ccccc1` (stereo not given): the activation is inactive: -1.54%.

Consider `CN1CCC(Nc2ccc(Cl)cc2)CC1`, for which the activation was inactive: 6.83%.
